## Yeast mating assay B: variants of the scFv Ab-14

Reference: Li et al. 2023, doi:10.1038/s41467-023-39022-2. File: FLAb, binding data.

All variants were tested on one target, the spike HR2 peptide PDVDLGDISGINAS (SARS-CoV-2).

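This is the validation round: designs drawn from the data on random variants, tested in the same kind of assay. Their group label is 14H_En_HC (En: ensemble of fine-tuned language models; HC: hill climbing; a sequence that several methods proposed may carry one label only). The scFvs were displayed on barcoded MATa yeast, the peptide on MATalpha yeast. The frequency of each diploid, read from paired DNA barcodes, reflects how well the two displayed proteins bind. Read counts were normalised to the haploid input and turned into Kd by a linear fit to BCL2-family pairs of known affinity, for each replicate. The assay was run in six technical replicates.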

Parent scFv Ab-14: VH joined to VL by the linker GGGGSGGGGSGGGGS. Changes lie in the heavy chain CDRs alone.
VH: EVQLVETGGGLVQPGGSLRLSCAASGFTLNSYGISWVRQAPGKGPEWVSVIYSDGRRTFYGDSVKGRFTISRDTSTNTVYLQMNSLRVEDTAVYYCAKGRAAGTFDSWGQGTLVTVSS
VL: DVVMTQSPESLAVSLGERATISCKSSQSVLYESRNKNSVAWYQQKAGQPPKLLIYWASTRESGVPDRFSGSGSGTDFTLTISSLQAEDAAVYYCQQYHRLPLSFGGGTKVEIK

The parent's heavy chain CDRs are GFTLNSYGIS, VIYSDGRRTFYGDSVK, GRAAGTFDS; each variant's own CDRs replace them letter for letter. The read-out is the apparent dissociation constant on a log10 scale (nM): the lower, the stronger. "n.d." marks a missing value. The strain was present, yet no cells mated with the target were sequenced in that replicate, which points to weak or no binding. Of ten entries with the parent sequence, four were seen in most replicates (averages 0.34 to 2.37), three in one and three in none, so single entries are noisy. The authors' rule: three or more of the six replicates give a measured affinity, fewer mean a poor binder. Three control strains display no target. For all heavy chain designs, 1% of the pairings with them gave a signal, with a median of 2.08 and one signal in twenty below 0.84, so weak values seen in few replicates may be background. The control count says in how many pairings with the empty strains this scFv gave a signal, with their mean in brackets. Values of this round are not directly comparable with the first-round values of the same sequences.

| CDR-H1 | CDR-H2 | CDR-H3 | log10 Kd, replicates | empty controls |
|---|---|---|---|---|
| GFDLNEYGIS | VIYADGRRTAYIDSVK | GDAAGTFDV | n.d. / n.d. / n.d. / n.d. / n.d. / n.d. | 0/18 |
| GFNLNEYGIS | VIYADGMRTAYTDSVK | GETAGTFIN | 1.17 / 0.87 / 1.03 / 0.42 / 1.09 / 0.99 | 0/18 |
| GFNLNEYGIS | VIYADGRRKFYADSVK | GNTAGTFDA | -0.67 / -0.79 / -0.85 / -0.93 / -0.72 / -0.69 | 1/18 (2.96) |
| GFDLNEYGIS | VIYADGVRTFYSDSVK | GEAGGTFDV | -0.09 / 0.14 / 0.74 / 0.72 / 0.02 / 0.41 | 0/18 |
| GFDLESYGIS | VIYADGRRTFYADNVK | GENAGTFDI | -0.16 / -0.44 / -0.48 / -0.77 / -0.66 / -0.06 | 0/18 |
| GFDLDEYGIS | VIYADGKRTFYQDSVK | GNVAGTFDS | -0.22 / 0.16 / 0.23 / -0.50 / -0.33 / -0.31 | 0/18 |
| GFDLEEYGIS | VIYADGKRTFYSDSVK | GENAGTFDV | -0.87 / -1.12 / -0.23 / -0.82 / -1.43 / -0.62 | 0/18 |
| GFNLDEYGIS | VIYADGMRTFYQDSVK | GEVAGTFDF | 0.06 / -0.18 / -0.20 / -0.20 / -0.14 / -0.27 | 1/18 (1.47) |
| GFNLNEYGIS | VIYADGVRKFYADSVK | GNTAGTFDV | -0.08 / -0.02 / -0.28 / -0.40 / -0.56 / -0.11 | 0/18 |
| GFDLNEYGIS | VIYADGMRTFYADSVK | GNLAGTFDQ | 1.31 / 0.85 / 1.17 / 0.69 / 0.81 / 0.86 | 0/18 |
| GFDLNEYGIS | VIYADGRRTFYIDSVK | GEVAGTFIM | 0.70 / 1.12 / 1.10 / 0.59 / 0.55 / n.d. | 0/18 |
| GFDLNEYGIS | VIYADGRRTFYSDSVK | GNQAGTFDS | -0.32 / -0.45 / -0.35 / -0.60 / -0.61 / -0.48 | 0/18 |
| GFDLNEYGIS | VIYADGRRTFYADSVK | GQLAGTFDI | 0.07 / -0.28 / -0.25 / -0.23 / -0.02 / 0.09 | 0/18 |
| GFDLNEYGIS | VIYADGRRTFYSDSVK | GTNAGTFDS | -0.42 / -0.65 / -0.81 / -0.69 / -0.80 / -0.46 | 0/18 |
| GFDLNEYGIS | VIYADGRRTFYADSVK | GNLAGTFDS | -0.17 / -0.48 / -0.64 / -0.39 / -0.26 / -0.31 | 0/18 |
| GFNLNEYGIS | VIYADGRRTFYTDDVK | GEQAGTFDL | -0.91 / -0.84 / -1.28 / -0.69 / -1.47 / -1.26 | 0/18 |
| GFDIDEYGIS | VIYADGMRTFYADSVK | GTNAGTFDV | 0.04 / 0.10 / 0.07 / -0.22 / 0.08 / 0.03 | 0/18 |
| GFDLNEYGIS | VIYADGRRTAYTDSVK | GHNAGTFDV | -0.72 / -0.47 / -0.52 / -0.12 / -0.41 / -0.49 | 0/18 |
| GFDLNEYGIS | VIYADGRRTFYADSVK | GKMAGTFDQ | -0.78 / -0.65 / -0.34 / -0.82 / -0.55 / -0.70 | 0/18 |
| GFDLNEYGIS | VIYADGRRTFYADSVK | GNVAGTFVQ | -0.58 / -0.49 / -0.98 / -0.94 / -0.79 / -0.75 | 0/18 |
| GFDLEEYGIS | VIYADGMRTFYSDSVK | GENAGTFDI | -0.01 / -0.02 / -0.15 / -0.09 / -0.22 / -0.12 | 0/18 |
| GFDINEYGIS | VIYADGMRTFYTDSVK | GGNAGTFDV | 0.18 / -0.31 / 0.12 / -0.86 / 0.06 / -0.37 | 0/18 |
| GFDLNEYGIS | VIYADGRRTFYSDSVK | GEFAGTFDQ | -0.08 / -0.27 / 0.30 / -0.27 / 0.39 / -0.40 | 0/18 |
| GFNLDEYGIS | VIYADGRRTFYADSVK | GQVAGTFDT | -1.02 / -0.49 / -0.82 / -1.00 / -0.96 / -0.73 | 0/18 |
| GFTLNSYGIS | VIYSDGRRTFYDDSVK | GQLAGTFDS | 1.02 / 0.43 / 0.93 / 1.21 / 0.58 / 0.36 | 1/18 (1.93) |
| GFDLESYGIS | VIYADGRRTFYADKVK | GQNAGTFDI | -0.33 / -0.64 / -0.31 / -0.54 / -0.48 / -0.71 | 0/18 |
| GFDLDEYGIS | VIYADGRRTFYQDSVK | GENAGTFDQ | n.d. / n.d. / n.d. / n.d. / 4.12 / n.d. | 0/18 |
| GFDLNEYGIS | VIYADGRRTFYADSVK | GEAAGTFFL | 1.04 / 1.42 / 0.90 / 0.89 / 1.05 / 0.72 | 1/18 (2.23) |
| GFDLNEYGIS | VIYADGRRTFYSDSVK | GTNAGTFDI | -0.39 / -0.07 / -0.29 / -0.20 / -0.28 / -0.34 | 0/18 |
| GFDLESYGIS | VIYADGKRTAYADSVK | GNVAGTFDV | -0.04 / -0.04 / -0.47 / -0.23 / -0.31 / 0.01 | 0/18 |
| GFDLDEYGIS | VIYADGRRTFYADSVK | GEVAGTFFS | -0.15 / -0.24 / -0.31 / -0.50 / -0.46 / -0.31 | 0/18 |
| GFDLDEYGIS | VIYADGRRTFYSDSVK | GENAGTFDI | -0.23 / -0.89 / -0.65 / -1.05 / -0.86 / -0.32 | 0/18 |
| GFDLNEYGIS | VIYADGVRTFYTDSVK | GTNAGTFDM | -0.01 / -0.64 / -0.58 / -0.33 / -0.54 / -0.40 | 1/18 (2.12) |

The closing 3 entries, repeated:

| CDR-H1 | CDR-H2 | CDR-H3 | log10 Kd, replicates | empty controls |
|---|---|---|---|---|
| GFDLDEYGIS | VIYADGRRTFYADSVK | GEVAGTFFS | -0.15 / -0.24 / -0.31 / -0.50 / -0.46 / -0.31 | 0/18 |
| GFDLDEYGIS | VIYADGRRTFYSDSVK | GENAGTFDI | -0.23 / -0.89 / -0.65 / -1.05 / -0.86 / -0.32 | 0/18 |
| GFDLNEYGIS | VIYADGVRTFYTDSVK | GTNAGTFDM | -0.01 / -0.64 / -0.58 / -0.33 / -0.54 / -0.40 | 1/18 (2.12) |